Data as given in PubChem BioAssay AID602385 (Sanford-Burnham Center for Chemical Genomics, 2012).
The entries are a selection whose mix differs from that of the whole data set. Calls of active or inactive are those of the source.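 The calls were made as follows: active = average inhibition of at least 30% in the single-concentration confirmation test; inactive = the rest.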

By UniProt entry, the sequences of proteins in these tests, tags left out. Where a name states a change or a piece, a line headed by the entry shows the natural chain unless it says otherwise.
UniProt P26358: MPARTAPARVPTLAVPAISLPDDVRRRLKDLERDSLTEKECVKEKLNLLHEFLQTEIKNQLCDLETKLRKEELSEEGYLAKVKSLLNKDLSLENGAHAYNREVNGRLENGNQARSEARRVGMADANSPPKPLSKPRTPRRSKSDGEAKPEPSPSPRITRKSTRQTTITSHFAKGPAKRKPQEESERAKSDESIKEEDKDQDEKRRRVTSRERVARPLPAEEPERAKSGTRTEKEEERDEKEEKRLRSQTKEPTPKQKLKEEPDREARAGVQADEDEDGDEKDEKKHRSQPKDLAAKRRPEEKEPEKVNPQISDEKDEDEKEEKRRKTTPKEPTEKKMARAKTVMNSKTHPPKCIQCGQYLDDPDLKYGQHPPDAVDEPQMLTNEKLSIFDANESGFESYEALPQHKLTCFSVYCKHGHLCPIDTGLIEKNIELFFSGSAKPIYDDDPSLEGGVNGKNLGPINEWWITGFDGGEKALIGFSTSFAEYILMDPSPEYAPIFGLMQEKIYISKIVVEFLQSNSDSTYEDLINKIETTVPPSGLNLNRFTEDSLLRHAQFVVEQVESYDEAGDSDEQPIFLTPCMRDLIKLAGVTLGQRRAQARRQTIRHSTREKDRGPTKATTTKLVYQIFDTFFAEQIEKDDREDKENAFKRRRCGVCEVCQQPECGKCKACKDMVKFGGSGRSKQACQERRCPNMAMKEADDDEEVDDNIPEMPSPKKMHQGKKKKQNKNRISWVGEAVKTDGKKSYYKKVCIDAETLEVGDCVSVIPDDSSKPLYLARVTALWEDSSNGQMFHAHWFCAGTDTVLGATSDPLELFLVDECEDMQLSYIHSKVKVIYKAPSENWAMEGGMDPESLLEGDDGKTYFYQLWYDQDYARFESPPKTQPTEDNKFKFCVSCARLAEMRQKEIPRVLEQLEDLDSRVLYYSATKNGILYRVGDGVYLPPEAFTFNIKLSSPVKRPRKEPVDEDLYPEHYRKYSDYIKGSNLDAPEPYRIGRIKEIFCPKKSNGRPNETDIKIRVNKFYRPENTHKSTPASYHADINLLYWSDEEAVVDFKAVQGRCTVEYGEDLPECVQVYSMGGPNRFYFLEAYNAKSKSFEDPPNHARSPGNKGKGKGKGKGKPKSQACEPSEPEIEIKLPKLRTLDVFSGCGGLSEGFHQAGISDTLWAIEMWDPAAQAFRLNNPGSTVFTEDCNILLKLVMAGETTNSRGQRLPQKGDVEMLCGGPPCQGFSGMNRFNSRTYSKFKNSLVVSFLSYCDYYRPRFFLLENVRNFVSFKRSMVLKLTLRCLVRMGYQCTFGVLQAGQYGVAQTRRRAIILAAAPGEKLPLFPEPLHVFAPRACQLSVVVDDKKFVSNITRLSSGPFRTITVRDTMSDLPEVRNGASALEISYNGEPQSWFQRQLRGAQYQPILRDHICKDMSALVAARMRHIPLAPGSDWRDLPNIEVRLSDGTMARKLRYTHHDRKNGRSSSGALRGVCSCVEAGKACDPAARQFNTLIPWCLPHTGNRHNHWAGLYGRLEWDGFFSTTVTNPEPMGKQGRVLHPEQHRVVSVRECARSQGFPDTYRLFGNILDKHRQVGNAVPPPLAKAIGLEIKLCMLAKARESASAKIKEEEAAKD

Target: DNA (cytosine-5)-methyltransferase 1 (Homo sapiens) (UniProt P26358)
Assay: inhibition of human DNMT1, hit confirmation – biochemical, molecular beacon, fluorescence, single concentration (AID 602385)
Details: DNMT1 molecular beacon HinP1I cleavage, at 10 µM, hits give high values

Row | Structure (SMILES) | inhibition
1 | Nc1cccc2ccc([As](=O)(O)O)cc12 | inactive: 5.76%
2 | Nc1cccc2c([As](=O)(O)O)cccc12 | inactive: 1.56%
